Calls of active or inactive are those of the source. No cut-off for these calls is given here.
Tests used:
[1] = target: T1, [Pyruvate dehydrogenase (acetyl-transferring)] kinase isozyme 3, mitochondrial (Homo sapiens, UniProt Q15120); assay: Binding affinity to human PDHK3 expressed in permeabilized HEK293 cells at 30 uM for 2 hrs by NanoBRET target engagement assay; type: cell-based
[2] = target: T2, [Pyruvate dehydrogenase (acetyl-transferring)] kinase isozyme 4, mitochondrial (Homo sapiens, UniProt Q16654); assay: Inhibition of PDHK4 in human A549 cells in PDH phosphorylation at Ser293 residue at 50 uM by immunoblotting analysis; type: cell-based; settings: time 1-24 hrs
[3] = target: Transient receptor potential cation channel subfamily M member 7 (Homo sapiens) (UniProt Q96QT4); assay: Inhibition of human TRPM7/CHAK1 assessed as enzyme activity using FITC-geldanamycin as substrate at 30 uM pre-incubated for 30 min followed by 3 hrs incubation by fluorescence polarization based method relative to control; set-up: scale not given: the % may be the effect or the level left; settings: time 210.0 min
[4] = target: T3, [Pyruvate dehydrogenase (acetyl-transferring)] kinase isozyme 2, mitochondrial (Homo sapiens, UniProt Q15119); assay: Binding affinity to human PDHK2 expressed in permeabilized HEK293 cells at 30 uM for 2 hrs by NanoBRET target engagement assay; type: cell-based
[5] = target: Serine/threonine-protein kinase mTOR (Homo sapiens) (UniProt P42345); assay: Inhibition of human mTOR/FRAP1 assessed as enzyme activity using FITC-geldanamycin as substrate at 30 uM pre-incubated for 30 min followed by 3 hrs incubation by fluorescence polarization based method relative to control; set-up: scale not given: the % may be the effect or the level left
[6] = target: Tyrosine-protein kinase BTK (Homo sapiens) (UniProt Q06187); assay: Inhibition of human BTK assessed as enzyme activity using FITC-geldanamycin as substrate at 30 uM pre-incubated for 30 min followed by 3 hrs incubation by fluorescence polarization based method relative to control; set-up: scale not given: the % may be the effect or the level left; settings: time 210.0 min
[7] = target: AMP-activated protein kinase (AMPK) alpha-1/beta-1/gamma-1 (Homo sapiens) (UniProt P54619+Q9Y478+Q13131); assay: Inhibition of human AMPK(alpha1/beta1/gamma1) assessed as enzyme activity using FITC-geldanamycin as substrate at 30 uM pre-incubated for 30 min followed by 3 hrs incubation by fluorescence polarization based method relative to control; type: protein-complex assay; set-up: scale not given: the % may be the effect or the level left
[8] = target: AMP-activated protein kinase alpha-2/beta-2/gamma-2 (Homo sapiens) (UniProt P54646+O43741+Q9UGJ0); assay: Inhibition of human AMPK(alpha2/beta2/gamma2) assessed as enzyme activity using FITC-geldanamycin as substrate at 30 uM pre-incubated for 30 min followed by 3 hrs incubation by fluorescence polarization based method relative to control; type: protein-complex assay; set-up: scale not given: the % may be the effect or the level left; settings: time 210.0 min
[9] = target: Heat shock protein HSP 90-alpha (Homo sapiens) (UniProt P07900); assay: Inhibition of human Hsp90alpha assessed as enzyme activity using FITC-geldanamycin as substrate at 30 uM pre-incubated for 30 min followed by 3 hrs incubation by fluorescence polarization based method relative to control; set-up: scale not given: the % may be the effect or the level left; settings: time 210.0 min
[10] = target: eIF-2-alpha kinase GCN2 (Homo sapiens) (UniProt Q9P2K8); assay: Inhibition of human EIF2AK4 assessed as enzyme activity using FITC-geldanamycin as substrate at 30 uM pre-incubated for 30 min followed by 3 hrs incubation by fluorescence polarization based method relative to control; set-up: scale not given: the % may be the effect or the level left; settings: time 210.0 min
[11] = target: T3, [Pyruvate dehydrogenase (acetyl-transferring)] kinase isozyme 2, mitochondrial; assay: Inhibition of PDHK2 in human A549 cells in PDH phosphorylation at Ser293 residue at 50 uM by immunoblotting analysis; type: cell-based; settings: time 1-24 hrs
[12] = target: T2, [Pyruvate dehydrogenase (acetyl-transferring)] kinase isozyme 4, mitochondrial; assay: Binding affinity to human PDHK4 expressed in permeabilized HEK293 cells at 30 uM for 2 hrs by NanoBRET target engagement assay; type: cell-based
[13] = target: T4, Eukaryotic elongation factor 2 kinase (Homo sapiens) (UniProt O00418); assay: Inhibition of human EEF2K assessed as enzyme activity using FITC-geldanamycin as substrate at 30 uM pre-incubated for 30 min followed by 3 hrs incubation by fluorescence polarization based method relative to control; set-up: scale not given: the % may be the effect or the level left; settings: time 210.0 min
T4 sequence (whole entry): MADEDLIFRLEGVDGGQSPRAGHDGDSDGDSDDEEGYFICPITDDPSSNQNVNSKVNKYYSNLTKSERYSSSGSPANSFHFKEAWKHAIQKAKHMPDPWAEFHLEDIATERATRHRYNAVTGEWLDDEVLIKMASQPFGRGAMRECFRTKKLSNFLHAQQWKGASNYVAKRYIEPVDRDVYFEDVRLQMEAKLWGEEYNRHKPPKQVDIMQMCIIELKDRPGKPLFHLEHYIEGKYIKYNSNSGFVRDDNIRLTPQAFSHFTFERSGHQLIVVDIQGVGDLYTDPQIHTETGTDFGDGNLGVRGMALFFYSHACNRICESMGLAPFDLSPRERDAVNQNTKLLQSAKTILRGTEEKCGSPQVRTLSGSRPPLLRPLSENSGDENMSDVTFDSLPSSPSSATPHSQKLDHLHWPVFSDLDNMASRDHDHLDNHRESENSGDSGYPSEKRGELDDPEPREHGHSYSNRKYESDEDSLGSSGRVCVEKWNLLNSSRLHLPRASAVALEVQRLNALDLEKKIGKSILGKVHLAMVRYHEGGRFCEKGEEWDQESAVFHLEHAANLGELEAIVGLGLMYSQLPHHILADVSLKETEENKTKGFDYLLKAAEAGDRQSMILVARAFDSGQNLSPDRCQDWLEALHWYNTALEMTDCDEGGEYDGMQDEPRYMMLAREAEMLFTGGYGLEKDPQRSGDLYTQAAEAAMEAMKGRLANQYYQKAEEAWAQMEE

Sequences of proteins named here, by UniProt entry; tags and fusion partners are left off. A change or cut given only in a name is not applied to a line headed by its entry.
UniProt Q15120, whole entry, looked up: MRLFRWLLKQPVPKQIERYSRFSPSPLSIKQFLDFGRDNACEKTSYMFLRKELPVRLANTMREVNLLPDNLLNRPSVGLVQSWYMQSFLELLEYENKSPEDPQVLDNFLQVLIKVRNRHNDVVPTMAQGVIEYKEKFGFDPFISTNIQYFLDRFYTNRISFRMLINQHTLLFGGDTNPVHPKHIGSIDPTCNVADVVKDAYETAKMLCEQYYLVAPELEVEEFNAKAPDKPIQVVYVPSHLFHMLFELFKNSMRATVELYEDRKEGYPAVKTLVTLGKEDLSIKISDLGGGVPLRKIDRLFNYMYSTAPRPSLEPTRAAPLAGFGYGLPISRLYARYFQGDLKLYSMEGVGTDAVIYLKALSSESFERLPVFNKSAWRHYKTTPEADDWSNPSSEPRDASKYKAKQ
UniProt Q16654, whole entry, looked up: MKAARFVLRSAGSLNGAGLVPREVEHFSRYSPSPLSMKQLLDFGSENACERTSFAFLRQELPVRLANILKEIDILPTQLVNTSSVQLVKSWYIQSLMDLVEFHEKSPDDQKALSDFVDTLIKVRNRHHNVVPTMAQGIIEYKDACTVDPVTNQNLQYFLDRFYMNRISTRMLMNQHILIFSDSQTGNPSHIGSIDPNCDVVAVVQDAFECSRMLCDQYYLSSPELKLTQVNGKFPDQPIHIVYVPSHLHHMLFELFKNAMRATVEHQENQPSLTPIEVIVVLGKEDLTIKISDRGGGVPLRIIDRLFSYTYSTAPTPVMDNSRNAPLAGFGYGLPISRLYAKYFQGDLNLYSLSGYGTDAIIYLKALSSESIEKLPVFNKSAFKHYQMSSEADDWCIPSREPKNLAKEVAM
UniProt Q96QT4: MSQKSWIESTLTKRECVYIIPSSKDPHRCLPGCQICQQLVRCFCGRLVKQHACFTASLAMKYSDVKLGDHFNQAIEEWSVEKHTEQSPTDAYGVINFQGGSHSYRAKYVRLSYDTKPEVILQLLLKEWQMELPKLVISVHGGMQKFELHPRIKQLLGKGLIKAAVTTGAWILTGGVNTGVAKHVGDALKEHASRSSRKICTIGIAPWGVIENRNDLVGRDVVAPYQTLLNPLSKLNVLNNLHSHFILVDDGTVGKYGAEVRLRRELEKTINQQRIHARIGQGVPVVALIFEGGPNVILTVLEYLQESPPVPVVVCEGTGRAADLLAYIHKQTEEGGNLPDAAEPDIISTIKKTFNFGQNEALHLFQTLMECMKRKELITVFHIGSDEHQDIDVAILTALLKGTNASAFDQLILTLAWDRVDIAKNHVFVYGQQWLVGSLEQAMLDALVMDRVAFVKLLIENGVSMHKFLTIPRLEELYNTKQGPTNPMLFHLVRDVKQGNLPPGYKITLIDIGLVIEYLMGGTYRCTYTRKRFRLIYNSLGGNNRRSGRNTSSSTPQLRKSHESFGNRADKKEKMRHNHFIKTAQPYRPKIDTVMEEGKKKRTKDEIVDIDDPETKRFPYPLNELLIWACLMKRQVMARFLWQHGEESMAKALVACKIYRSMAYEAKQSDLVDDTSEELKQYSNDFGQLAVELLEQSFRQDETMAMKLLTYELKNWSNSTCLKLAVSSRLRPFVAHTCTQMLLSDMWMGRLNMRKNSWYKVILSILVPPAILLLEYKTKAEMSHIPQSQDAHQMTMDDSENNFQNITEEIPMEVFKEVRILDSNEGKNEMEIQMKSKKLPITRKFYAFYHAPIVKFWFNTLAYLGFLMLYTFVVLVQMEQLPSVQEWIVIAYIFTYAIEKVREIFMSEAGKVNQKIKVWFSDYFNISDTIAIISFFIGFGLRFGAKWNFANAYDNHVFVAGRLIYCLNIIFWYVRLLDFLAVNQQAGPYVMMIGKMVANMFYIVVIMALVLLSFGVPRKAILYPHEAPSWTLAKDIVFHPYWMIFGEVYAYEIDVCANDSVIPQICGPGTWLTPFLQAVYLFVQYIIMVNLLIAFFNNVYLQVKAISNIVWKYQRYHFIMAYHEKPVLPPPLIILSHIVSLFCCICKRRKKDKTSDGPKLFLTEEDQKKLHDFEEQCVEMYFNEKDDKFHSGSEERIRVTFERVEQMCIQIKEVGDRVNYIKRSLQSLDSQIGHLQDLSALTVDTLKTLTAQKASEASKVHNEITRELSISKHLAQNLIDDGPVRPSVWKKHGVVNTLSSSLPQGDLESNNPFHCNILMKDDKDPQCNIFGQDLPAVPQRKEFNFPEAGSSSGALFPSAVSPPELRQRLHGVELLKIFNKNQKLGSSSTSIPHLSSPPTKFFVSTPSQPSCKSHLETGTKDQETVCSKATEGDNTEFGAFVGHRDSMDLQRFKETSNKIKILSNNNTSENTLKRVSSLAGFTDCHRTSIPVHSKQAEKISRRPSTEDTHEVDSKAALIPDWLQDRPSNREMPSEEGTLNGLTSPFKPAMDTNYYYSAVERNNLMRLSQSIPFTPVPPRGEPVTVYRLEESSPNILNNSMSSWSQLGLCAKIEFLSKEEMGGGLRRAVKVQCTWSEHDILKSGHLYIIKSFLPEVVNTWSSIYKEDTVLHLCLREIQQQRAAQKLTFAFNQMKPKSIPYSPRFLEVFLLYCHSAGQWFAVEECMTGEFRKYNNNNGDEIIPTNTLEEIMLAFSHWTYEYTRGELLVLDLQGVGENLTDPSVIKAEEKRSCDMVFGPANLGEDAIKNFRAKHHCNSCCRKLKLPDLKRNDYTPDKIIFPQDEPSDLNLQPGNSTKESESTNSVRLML
UniProt P54619: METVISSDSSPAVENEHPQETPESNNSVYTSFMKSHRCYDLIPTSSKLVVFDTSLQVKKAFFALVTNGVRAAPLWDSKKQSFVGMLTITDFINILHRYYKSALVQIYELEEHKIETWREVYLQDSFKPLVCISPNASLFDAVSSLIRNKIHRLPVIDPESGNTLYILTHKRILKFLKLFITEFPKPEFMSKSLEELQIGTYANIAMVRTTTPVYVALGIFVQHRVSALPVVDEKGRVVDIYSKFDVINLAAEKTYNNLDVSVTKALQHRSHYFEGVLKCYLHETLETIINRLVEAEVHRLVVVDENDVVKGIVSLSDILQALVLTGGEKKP
UniProt Q9Y478: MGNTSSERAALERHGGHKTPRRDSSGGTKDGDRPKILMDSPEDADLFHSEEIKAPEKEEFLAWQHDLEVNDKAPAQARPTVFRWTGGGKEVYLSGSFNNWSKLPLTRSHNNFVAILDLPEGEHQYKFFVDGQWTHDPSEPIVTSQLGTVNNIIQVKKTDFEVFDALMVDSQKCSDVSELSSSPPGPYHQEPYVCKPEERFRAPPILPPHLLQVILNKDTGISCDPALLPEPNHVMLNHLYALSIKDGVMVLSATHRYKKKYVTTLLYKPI
UniProt O43741: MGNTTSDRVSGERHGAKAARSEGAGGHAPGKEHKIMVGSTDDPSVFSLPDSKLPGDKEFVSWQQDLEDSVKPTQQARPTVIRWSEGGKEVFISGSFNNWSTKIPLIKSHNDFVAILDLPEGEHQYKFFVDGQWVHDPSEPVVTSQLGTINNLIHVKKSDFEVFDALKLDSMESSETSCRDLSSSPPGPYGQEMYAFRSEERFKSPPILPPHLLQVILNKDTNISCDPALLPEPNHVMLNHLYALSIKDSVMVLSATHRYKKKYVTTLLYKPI
UniProt Q9P2K8: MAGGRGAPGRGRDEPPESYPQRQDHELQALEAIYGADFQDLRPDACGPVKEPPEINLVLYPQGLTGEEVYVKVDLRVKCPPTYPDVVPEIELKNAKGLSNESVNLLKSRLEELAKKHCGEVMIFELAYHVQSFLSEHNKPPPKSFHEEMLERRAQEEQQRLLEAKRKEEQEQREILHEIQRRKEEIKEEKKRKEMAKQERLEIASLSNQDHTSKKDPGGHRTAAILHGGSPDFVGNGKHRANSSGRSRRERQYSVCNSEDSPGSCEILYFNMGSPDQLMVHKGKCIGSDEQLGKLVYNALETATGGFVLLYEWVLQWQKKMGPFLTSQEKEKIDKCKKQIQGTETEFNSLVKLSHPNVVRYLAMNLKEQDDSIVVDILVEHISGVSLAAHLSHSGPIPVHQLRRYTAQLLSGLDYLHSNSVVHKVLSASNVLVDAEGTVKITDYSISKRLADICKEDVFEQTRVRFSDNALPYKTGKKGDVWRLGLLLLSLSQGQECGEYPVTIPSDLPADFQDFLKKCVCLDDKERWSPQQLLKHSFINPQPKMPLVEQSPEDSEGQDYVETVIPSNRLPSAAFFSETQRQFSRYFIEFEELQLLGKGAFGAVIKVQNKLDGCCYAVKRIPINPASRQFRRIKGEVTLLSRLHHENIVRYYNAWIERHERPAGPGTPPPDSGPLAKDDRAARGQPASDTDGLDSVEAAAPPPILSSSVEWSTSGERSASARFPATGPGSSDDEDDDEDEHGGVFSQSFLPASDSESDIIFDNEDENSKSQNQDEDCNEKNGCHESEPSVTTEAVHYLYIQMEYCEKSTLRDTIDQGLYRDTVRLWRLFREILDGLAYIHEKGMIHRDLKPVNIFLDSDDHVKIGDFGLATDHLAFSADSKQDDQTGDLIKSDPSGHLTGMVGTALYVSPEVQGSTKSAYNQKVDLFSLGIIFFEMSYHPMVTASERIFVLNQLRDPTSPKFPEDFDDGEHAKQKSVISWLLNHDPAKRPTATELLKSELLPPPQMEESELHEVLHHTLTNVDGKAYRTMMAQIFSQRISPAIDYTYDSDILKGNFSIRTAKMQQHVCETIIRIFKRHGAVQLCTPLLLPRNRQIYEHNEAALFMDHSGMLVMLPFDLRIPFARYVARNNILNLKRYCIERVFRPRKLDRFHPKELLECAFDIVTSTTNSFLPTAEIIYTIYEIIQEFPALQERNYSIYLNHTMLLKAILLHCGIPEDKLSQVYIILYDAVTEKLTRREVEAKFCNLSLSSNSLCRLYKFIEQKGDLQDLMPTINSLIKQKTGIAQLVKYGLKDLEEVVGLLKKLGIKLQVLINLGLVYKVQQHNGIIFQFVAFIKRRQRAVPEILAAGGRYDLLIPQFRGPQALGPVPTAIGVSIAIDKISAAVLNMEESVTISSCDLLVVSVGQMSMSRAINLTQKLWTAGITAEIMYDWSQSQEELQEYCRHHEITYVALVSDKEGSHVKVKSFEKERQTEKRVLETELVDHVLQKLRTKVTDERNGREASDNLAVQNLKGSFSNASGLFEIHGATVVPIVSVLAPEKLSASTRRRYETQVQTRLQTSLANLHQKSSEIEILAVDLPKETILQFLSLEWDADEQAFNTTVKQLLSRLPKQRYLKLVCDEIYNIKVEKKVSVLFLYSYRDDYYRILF
UniProt P29597: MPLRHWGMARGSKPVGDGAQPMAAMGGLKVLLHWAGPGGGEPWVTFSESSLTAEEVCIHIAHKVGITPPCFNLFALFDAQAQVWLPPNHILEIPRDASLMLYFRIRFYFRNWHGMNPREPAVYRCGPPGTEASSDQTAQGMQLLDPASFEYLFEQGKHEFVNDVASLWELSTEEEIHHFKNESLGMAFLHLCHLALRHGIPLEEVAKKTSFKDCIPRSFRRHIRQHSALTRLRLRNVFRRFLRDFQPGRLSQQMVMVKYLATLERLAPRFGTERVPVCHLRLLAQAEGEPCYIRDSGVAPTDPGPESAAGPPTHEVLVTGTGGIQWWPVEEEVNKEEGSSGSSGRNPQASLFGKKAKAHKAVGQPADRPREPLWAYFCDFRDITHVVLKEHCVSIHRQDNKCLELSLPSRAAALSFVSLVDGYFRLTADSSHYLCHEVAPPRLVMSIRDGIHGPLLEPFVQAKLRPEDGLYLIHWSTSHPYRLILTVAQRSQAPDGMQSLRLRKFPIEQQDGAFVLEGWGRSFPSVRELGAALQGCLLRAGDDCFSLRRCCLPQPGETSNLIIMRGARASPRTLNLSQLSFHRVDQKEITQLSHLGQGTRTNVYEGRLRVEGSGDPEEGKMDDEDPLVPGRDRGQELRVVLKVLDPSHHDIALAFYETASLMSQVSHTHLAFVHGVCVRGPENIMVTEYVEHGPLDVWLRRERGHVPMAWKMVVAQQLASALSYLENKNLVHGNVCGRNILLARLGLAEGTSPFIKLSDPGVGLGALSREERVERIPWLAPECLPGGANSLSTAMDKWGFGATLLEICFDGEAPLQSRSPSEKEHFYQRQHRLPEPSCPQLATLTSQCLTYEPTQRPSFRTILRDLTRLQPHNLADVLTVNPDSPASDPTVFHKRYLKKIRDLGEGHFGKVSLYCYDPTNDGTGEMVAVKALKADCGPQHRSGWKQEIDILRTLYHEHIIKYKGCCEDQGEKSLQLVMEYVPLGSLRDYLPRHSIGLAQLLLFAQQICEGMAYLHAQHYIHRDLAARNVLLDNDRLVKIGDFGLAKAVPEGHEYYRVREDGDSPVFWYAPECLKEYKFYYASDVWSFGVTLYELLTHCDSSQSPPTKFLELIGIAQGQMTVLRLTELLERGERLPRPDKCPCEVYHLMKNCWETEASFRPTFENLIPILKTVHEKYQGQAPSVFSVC

[14] = target: T5, Eukaryotic translation initiation factor 2-alpha kinase 3 (Homo sapiens) (UniProt Q9NZJ5); assay: Inhibition of human EIF2AK3 assessed as enzyme activity using FITC-geldanamycin as substrate at 30 uM pre-incubated for 30 min followed by 3 hrs incubation by fluorescence polarization based method relative to control; set-up: scale not given: the % may be the effect or the level left; settings: time 210.0 min
T5 sequence (whole entry): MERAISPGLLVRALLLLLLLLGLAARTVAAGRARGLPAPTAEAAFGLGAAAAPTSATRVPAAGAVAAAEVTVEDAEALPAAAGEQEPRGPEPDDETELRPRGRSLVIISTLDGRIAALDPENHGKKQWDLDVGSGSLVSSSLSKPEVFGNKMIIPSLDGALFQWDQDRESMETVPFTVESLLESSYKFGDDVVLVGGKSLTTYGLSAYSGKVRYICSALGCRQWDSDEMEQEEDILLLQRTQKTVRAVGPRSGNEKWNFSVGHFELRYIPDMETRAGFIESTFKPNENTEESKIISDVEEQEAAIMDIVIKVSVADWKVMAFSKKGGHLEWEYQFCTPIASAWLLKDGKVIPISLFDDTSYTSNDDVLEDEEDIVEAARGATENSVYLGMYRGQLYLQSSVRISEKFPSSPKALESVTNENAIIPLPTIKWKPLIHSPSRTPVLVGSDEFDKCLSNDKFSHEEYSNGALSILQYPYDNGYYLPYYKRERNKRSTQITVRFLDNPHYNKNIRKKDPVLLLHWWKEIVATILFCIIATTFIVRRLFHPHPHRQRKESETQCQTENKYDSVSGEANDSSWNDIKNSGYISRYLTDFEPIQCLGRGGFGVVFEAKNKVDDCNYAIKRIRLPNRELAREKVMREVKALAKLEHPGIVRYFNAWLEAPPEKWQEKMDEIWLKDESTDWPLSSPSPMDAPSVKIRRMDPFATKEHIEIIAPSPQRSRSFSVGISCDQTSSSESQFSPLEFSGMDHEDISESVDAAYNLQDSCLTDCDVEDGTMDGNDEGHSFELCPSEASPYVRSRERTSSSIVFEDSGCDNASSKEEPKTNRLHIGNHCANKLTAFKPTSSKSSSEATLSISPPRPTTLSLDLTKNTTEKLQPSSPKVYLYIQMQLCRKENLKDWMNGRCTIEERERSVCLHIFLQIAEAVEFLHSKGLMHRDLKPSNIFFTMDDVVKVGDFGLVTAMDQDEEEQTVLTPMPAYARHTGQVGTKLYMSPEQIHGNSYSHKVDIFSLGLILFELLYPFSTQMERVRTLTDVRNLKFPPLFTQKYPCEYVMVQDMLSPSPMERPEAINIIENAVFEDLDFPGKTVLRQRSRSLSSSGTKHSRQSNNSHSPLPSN

[15] = target: AMP-activated protein kinase alpha-1/beta-2/gamma-3 (Homo sapiens) (UniProt O43741+Q13131+Q9UGI9); assay: Inhibition of human AMPK(alpha1/beta2/gamma3) assessed as enzyme activity using FITC-geldanamycin as substrate at 30 uM pre-incubated for 30 min followed by 3 hrs incubation by fluorescence polarization based method relative to control; type: protein-complex assay; set-up: scale not given: the % may be the effect or the level left; settings: time 210.0 min
[16] = target: Non-receptor tyrosine-protein kinase TYK2 (Homo sapiens) (UniProt P29597); assay: Inhibition of human TYK2 assessed as enzyme activity using FITC-geldanamycin as substrate at 30 uM pre-incubated for 30 min followed by 3 hrs incubation by fluorescence polarization based method relative to control; set-up: scale not given: the % may be the effect or the level left; settings: time 210.0 min
[17] = target: T1, [Pyruvate dehydrogenase (acetyl-transferring)] kinase isozyme 3, mitochondrial; assay: Inhibition of PDHK3 in human A549 cells in PDH phosphorylation at Ser293 residue at 50 uM by immunoblotting analysis; type: cell-based; settings: time 1-24 hrs

Compound: Cc1ccc(Cl)cc1S(=O)(=O)Nc1cc(C(=O)O)ccc1Br
- Activity [1]: No effect
- Activity [2]: inactive
- Activity [3]: 101%
- Activity [4]: No effect
- Activity [5]: 94.8%
- Activity [6]: 81.3%
- Activity [7]: 101%
- Activity [8]: 100%
- Activity [9]: 102%
- Activity [10]: 104%
- Activity [11]: inactive
- Activity [12]: No effect
- Activity [13]: 95.2%
- Activity [14]: 102%
- Activity [15]: 97.4%
- Activity [16]: 87.9%
- Activity [17]: inactive
